Our source for the Kd values is patent US20030069395A1 (DYAX, published 2003).

Assay [1] concerns the target T1, human serum albumin (HSA) (human, UniProt P02768 25-609).
T1 construct: also called caprylate-biotinylated-HSA
Briefly: fluorescence anisotropy; buffer not named in Table 2.

Assay [2] has as its target T1, human serum albumin (HSA). The assay can be described thus: fluorescence anisotropy, fluorescein-labelled peptide, PBS. As to the method:
(§1) Affinity determinations were made by first labeling polypeptides on the C-terminal end with NHS-fluorescein. Fluorescence anisotropy measurements were performed in 384-well microplates in a volume of 10 μl in binding buffer using a Tecan Polarion fluorescence polarization plate reader. The concentration of fluorescein labeled peptide was held constant (20 nM), and the concentration of HSA was varied. For pH 6.2, 7.1, and 7.4 binding conditions, a 3 mM phosphate, 0.01% Tween-20 buffer was used. For pH 9.1 binding conditions, a 3 mM sodium bicarbonate buffer, 0.01% Tween-20 nonionic detergent buffer was used. Once NaCl was added to any of these buffers, their pH was adjusted again to achieve the original pH. The binding mixtures were equilibrated for 10 minutes in the microplate at 30° C. prior to performing the measurement. The observed change in anisotropy was fit to the equation below via nonlinear regression to obtain the apparent KD. This equation assumes that the peptide and HSA form a reversible complex with 1:1 stoichiometry.
Selected HSA binding polypeptides from these additional library selections were synthesized, fluorescein-labeled as in Example 1, and tested to determine an apparent KD for HSA in PBS. […]

For assay [3], the target named is T1, human serum albumin (HSA). Briefly: fluoresceinated peptide; 3 mM phosphate buffer, pH 6.2, no salt. How it is done: as §1
(§2) Each of the polypeptides was fluoresceinated and tested for binding against an immobilized HSA target as described above.

Assay [4] addresses T1, human serum albumin (HSA). The assay can be described thus: fluoresceinated peptide; PBS. As to the method:
as §1, §2

The target of assay [5] is T1, human serum albumin (HSA). Briefly: fluorescence anisotropy; pH 6.2, 0.14 M NaCl, no caprylate. As to the method: as §1
The target of assay [6] is T1, human serum albumin (HSA). The assay can be described thus: fluorescence anisotropy; pH 6.2, no NaCl, no caprylate. How it is done:
as §1

Assay [7] concerns the target T1, human serum albumin (HSA). The assay can be described thus: fluorescence anisotropy; pH 7.4, 0.14 M NaCl, no caprylate. As to the method: as §1
Assay [8] concerns the target T1, human serum albumin (HSA). The assay can be described thus: fluorescence anisotropy; pH 7.4, 0.14 M NaCl, 0.1% caprylate. As to the method:
as §1
Once all the positive phage isolates were sequenced, peptides corresponding to the display peptide were synthesized. […]

B1: truncated peptide of DX-236, Ac-…-NH2 (as printed) (peptide)
peptide: AEGTGDFWFCDRIAWYPQHLCEFLGGGK
modifications: N-terminal acetyl; C-terminal amide; fluorescein on the C-terminal Lys side chain
notes: perhaps a misprint
As for B1, the affinity in assay [1], expressed as Kd, was 9.9 µM.

B2: truncated peptide of DX-236, Ac-CDRIAWYPQHLCGGGK-NH2 (peptide)
peptide: CDRIAWYPQHLCGGGK
modifications: N-terminal acetyl; C-terminal amide; fluorescein on the C-terminal Lys side chain
B2: the affinity in assay [1], expressed as Kd, was 16 µM.

B3: DX-999, Ac-GDNRECVTMWPFEQIFCPWPDPGGGK-NH2 (peptide)
peptide: GDNRECVTMWPFEQIFCPWPDPGGGK
modifications: N-terminal acetyl; C-terminal amide; fluorescein on the C-terminal Lys side chain
B3 gave a Kd in assay [2] of 12 µM.

B4: truncated peptide of DX-236, Ac-DRIAWYPQHLGGGK-NH2 (peptide)
peptide: DRIAWYPQHLGGGK
modifications: N-terminal acetyl; C-terminal amide; fluorescein on the C-terminal Lys side chain
notes: Linear, no cysteines
The molecule B4 showed an equilibrium dissociation constant (Kd) in assay [1] of 125 µM.

B5: alanine mutant of DX-236, Ac-AEGTGDFWACDRIAWYPQHLCEFLDPEGGGK-NH2 (peptide)
peptide: AEGTGDFWACDRIAWYPQHLCEFLDPEGGGK
modifications: N-terminal acetyl; C-terminal amide; fluoresceinated
Turning to B5, the Kd in assay [3] is 1.1 µM; in assay [4], 43 µM.

B6: alanine mutant of DX-236, Ac-AEGTGDFWFCDRIAWYAQHLCEFLDPEGGGK-NH2 (peptide)
peptide: AEGTGDFWFCDRIAWYAQHLCEFLDPEGGGK
modifications: N-terminal acetyl; C-terminal amide; fluoresceinated
In turn, B6 had a Kd in assay [4] of 43 µM.

B7: alanine mutant of DX-236, Ac-AEGTGDFWFCDRIAWYPQHLCAFLDPEGGGK-NH2 (peptide)
peptide: AEGTGDFWFCDRIAWYPQHLCAFLDPEGGGK
modifications: N-terminal acetyl; C-terminal amide; fluoresceinated
Regarding B7, the Kd in assay [3] is 1.7 µM; in assay [4], 6.6 µM.

B8: alanine mutant of DX-236, Ac-AEGTGDFWFCDRIAWYPQHLCEFADPEGGGK-NH2 (peptide)
peptide: AEGTGDFWFCDRIAWYPQHLCEFADPEGGGK
modifications: N-terminal acetyl; C-terminal amide; fluoresceinated
In the case of B8, the Kd is 2.1 µM in assay [3] and 47 µM in assay [4].

B9: alanine mutant of DX-236, Ac-AEGTGDFWFCDRIAWYPQHLCEFLAPEGGGK-NH2 (peptide)
peptide: AEGTGDFWFCDRIAWYPQHLCEFLAPEGGGK
modifications: N-terminal acetyl; C-terminal amide; fluoresceinated
For B9, the Kd in assay [3] came out at 1.7 µM; in assay [4], 10.5 µM.

B10: alanine mutant of DX-236, Ac-AEGTGDFWFCARIAWYPQHLCEFLDPEGGGK-NH2 (peptide)
peptide: AEGTGDFWFCARIAWYPQHLCEFLDPEGGGK
modifications: N-terminal acetyl; C-terminal amide; fluoresceinated
On to B10, for which, in assay [3], the Kd is 1.6 µM.

B11: alanine mutant of DX-236, Ac-AEGTGDFWFCDRIAWYPQHLCEALDPEGGGK-NH2 (peptide)
peptide: AEGTGDFWFCDRIAWYPQHLCEALDPEGGGK
modifications: N-terminal acetyl; C-terminal amide; fluoresceinated
Regarding B11, the results for the Kd in assay [3] and in assay [4] were 1.7 µM and 44 µM, respectively.

B12: alanine mutant of DX-236, Ac-AEGTGDFWFCDRIAWYPQHACEFLDPEGGGK-NH2 (peptide)
peptide: AEGTGDFWFCDRIAWYPQHACEFLDPEGGGK
modifications: N-terminal acetyl; C-terminal amide; fluoresceinated
Consider B12, for which, in assay [4], the affinity, expressed as Kd, was 34.5 µM.

B13: alanine mutant of DX-236, Ac-AEGTGDFWFCDRIAAYPQHLCEFLDPEGGGK-NH2 (peptide)
peptide: AEGTGDFWFCDRIAAYPQHLCEFLDPEGGGK
modifications: N-terminal acetyl; C-terminal amide; fluoresceinated
As for B13, binding in assay [4] was characterised by a dissociation constant (Kd) of 44 µM.

B14: alanine mutant of DX-236, Ac-AEGTGDFWFCDRAAWYPQHLCEFLDPEGGGK-NH2 (peptide)
peptide: AEGTGDFWFCDRAAWYPQHLCEFLDPEGGGK
modifications: N-terminal acetyl; C-terminal amide; fluoresceinated
As for B14, the Kd in assay [3] was determined as 1.1 µM; in assay [4] it was 4.5 µM.

B15: DX-238, Ac-AEGTGSFRNCEPWMLRFGCNPRAPEGGGK-NH2 (peptide)
peptide: AEGTGSFRNCEPWMLRFGCNPRAPEGGGK
modifications: N-terminal acetyl; C-terminal amide; fluorescein on the C-terminal Lys side chain
With B15, the Kd turned out to be 61 µM in assay [5], 4.8 µM in assay [6], 79 µM in assay [7] and 110 µM in assay [8].
